US5017565A, “Use of sulfated polysaccharides to inhibit pancreatic cholesterol esterase” (priority 1989, dated 1991)

Target: human 100 kDa cholesterol esterase
Assay: Inhibition of triolein hydrolysis by cholesterol esterase
Type: biochemical
Settings: table 3; triolein used instead of cholesterol oleate
Procedure: Alginic acid from Macrocystis pyrifera (kelp) was dissolved in water at a concentration of 1 mg/ml. This stock solution was used to prepare various polysaccharide concentrations down to 10^-5 mg/ml. Human pancreatic cholesterol esterase was purified as described by Bosner et al., Proc Nat'l. Acad. Sci., 85, 7438 (1988). To measure cholesterol esterase inhibition by alginic acid, 50 μl of cholesterol esterase (10 μg/ml). 75 μl of phosphatidylcholine vesicles containing cholesteryl ^14 C-oleate (1 mM 2,000 CPM/nmole). 25 μl of 100 mM taurocholate, 120 μl of 150 mM Tris. pH 7.5 and 30 μl of test alginic acid solution were incubated at 37° C. for fifteen minutes. The assay was quenched by placing the reaction vessels in a 4° C. ice bath and by adding 0.6 ml of 0.3 N NaOH and 3 ml of benzene/chloroform/methanol (1 0/1.2/0 5). The quenched reactions were vortexed for 30 seconds, centrifuged at 3,000 g for 15 minutes and 1 ml of the upper aqueous phase was added to 7 ml of Aquasol-2 (DuPont) with 0.025 ml of 6 N HCl. These mixtures were vortexed for one minute and counted for ^14 C-oleate The counts were compared to a sample which contained cholesterol esterase but no alginic acid to determine the percentage of inhibition. […]

Dextran Sulfate
IC50: 0.08 nM
